Experiments:
[1] = biological target: T1, Human CCR3 (Homo sapiens, UniProt P51677); assay: Receptor binding assay (RBA), [125I]-eotaxin; conditions: read-out: Activity grade RBA (IC50 class); human CCR3-transformed K562 cells, 0.1 nM [125I]-eotaxin; compounds of about 40 to 90% purity; tested form: dihydrochloride
Experimental: [Determination of IC50 Values of Compounds in Receptor Binding Assay]
(§1) • Human CCR3-transformed K562 cells were used. The cloned CCR3 cDNA was constructed with pcDNA3 vector and transfected into a IC562 cell line. The human CCR3-transformed K562 cells were maintained in RPMI-1640 (Cat.#22400-089, Life Technologies) supplemented with 10% FCS (Cat.#A-1115-L, Hyclone), 55 μM 2-mercaptoethanol (Cat.#21985-023, Life Technologies), 1 mM sodium pyruvate (Cat.#11360-070, Life Technologies), 100 units/ml of penicillin G and 100 μg/ml of streptomycin (Cat.#15140-122, Life Technologies), and 0.4 mg/ml of Geneticin (Cat.#10131-035, Life Technologies)(hereinafter called “culture medium”). Before the receptor binding assay, cells were pretreated with 5 mM sodium butyrate (Cat.#193-01522, Wako)-containing the culture medium (2×10^5 cells/ml) for 20-24 hours to increase the expression of CCR3. […] The non-specific binding was determined by parallel incubation in the presence of 500 nM of non-labeled eotaxin (Cat.#23209, Genzyme Techne). The radioactivities remained on the filter were measured by liquid scintillation counter (TopCount™, Packard) after an addition of 45 μl/well of scintillant (Microscint20, Cat.#6013621, Packard). The inhibition percent at each concentration of compound was calculated, and IC50 values were determined from the inhibition curve. […]

Sequences of proteins named here, by UniProt entry; tags and fusion partners are left off.
UniProt P51677, whole entry: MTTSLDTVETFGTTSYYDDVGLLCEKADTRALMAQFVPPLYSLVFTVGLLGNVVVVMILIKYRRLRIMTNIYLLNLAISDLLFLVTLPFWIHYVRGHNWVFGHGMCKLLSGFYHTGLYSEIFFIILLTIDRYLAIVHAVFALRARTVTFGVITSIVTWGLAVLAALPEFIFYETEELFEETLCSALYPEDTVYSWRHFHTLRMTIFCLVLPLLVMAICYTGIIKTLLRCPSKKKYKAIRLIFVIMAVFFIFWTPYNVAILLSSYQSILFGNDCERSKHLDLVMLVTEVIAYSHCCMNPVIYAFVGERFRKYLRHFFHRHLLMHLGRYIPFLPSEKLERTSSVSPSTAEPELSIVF

[2] = biological target: T1, Human CCR3; assay: Calcium mobilization assay, eotaxin-stimulated; conditions: read-out: Activity grade Ca2+ (IC50 class); human CCR3-transformed K562 cells, 10 nM eotaxin; compounds of about 40 to 90% purity; tested form: dihydrochloride
Experimental: as §1

O=S(=O)(c1cnccc1Oc1cc(Cl)cc(Cl)c1)N1CCNCC1
IC50 [1]: < 1000 nM
IC50 [2]: < 1000 nM

From patent US8242118B2, “Arylsulfonamide derivatives for use as CCR3 antagonists in the treatment of inflammatory and immunological disorders” (Axikin Pharmaceuticals Inc., priority 2001, dated 2012)
